Test results reported in article PMC4748415, “Impact of different cell penetrating peptides on the efficacy of antisense therapeutics for targeting intracellular pathogens” (Scientific Reports, 2016).
≈ marks a conversion by molar mass, not a printed value.

Tested on: clinical isolates of L. monocytogenes
Assay type: cell-based, Listeria monocytogenes
Settings: 16 h
Procedure: The MICs of conjugated PNAs, free PNA, CPPs and untreated control against L. monocytogenes were determined using the broth microdilution method according to the Clinical and Laboratory Standards Institute (CLSI) guidelines with the following modifications. Briefly, low binding clear microcentrifuge tubes (USA scientific, Inc. Ocala, FL) were used in triplicates for each reaction instead of traditional 96-well plates. […] After a 16 hour incubation period (of test agent with bacteria), the number of viable bacteria was enumerated by serial dilution and counting on TSA plates. The MICs were repeated at least twice.

MIC50: 64 µM (≈ 144 µg/mL)
Structure (SMILES): CC[C@H](C)[C@H](NC(=O)[C@H](CCCCN)NC(=O)[C@@H](NC(=O)[C@H](CCC(N)=O)NC(=O)[C@@H](N)CCCNC(=N)N)[C@@H](C)CC)C(=O)N[C@@H](Cc1c[nH]c2ccccc12)C(=O)N[C@@H](Cc1ccccc1)C(=O)N[C@@H](CCC(N)=O)C(=O)N[C@@H](CC(N)=O)C(=O)N[C@@H](CCCNC(=N)N)C(=O)N[C@@H](CCCNC(=N)N)C(=O)N[C@@H](CCSC)C(=O)N[C@@H](CCCCN)C(=O)N[C@@H](Cc1c[nH]c2ccccc12)C(=O)N[C@@H](CCCCN)C(=O)N[C@@H](CCCCN)C(=O)O [ANT]
